Measurements as given in patent US7741280 (CENTRE NATIONAL DE LA RECHERCHE SCIENTIFIQUE, dated 2010).

Target: T1, human CD154 muCD8 fusion protein, ANCELL Corporation (mouse; human, UniProt P01731, in part; P29965, in part)
T1 construct: Bought reagent; injected as analyte in the Biacore experiments; also called CD40L
Assay: SPR (Biacore 3000); CD40 muIg captured on rabbit anti-mouse Ig chip; CD40L as analyte at 4 concentrations from 62.5 to 500 nM
Experimental: Rabbit antibodies directed against the constant region of mouse immunoglobulins were immobilized on a microchip. In the reference cell a monoclonal mouse antibody of isotype IgG2a (LG112) at 40 nM is immobilized with a flow of 5 µL/min for 2 minutes; in the cell of the ligand the recombinant CD40 associated with the constant region of the mouse IgG2a heavy chain (human CD40 muIg fusion protein, ANCELL Corporation, Bayport, Minn.) is immobilized under the same conditions.
The flow in the presence of the analytes is 10 µL/min for 5 minutes to study the association and, in the absence of analytes, the conditions are the same to study the dissociation.
The equilibrium constant is calculated at 54 nM.

Kd: 54 nM
B1: human CD40 muIg fusion protein (recombinant CD40 associated with the constant region of the mouse IgG2a heavy chain), ANCELL Corporation (Fc fusion, UniProt P25942 21-193, looked up)
chain: EPPTACREKQYLINSQCCSLCQPGQKLVSDCTEFTETECLPCGESEFLDTWNRETHCHQHKYCDPNLGLRVQQKGTSETDTICTCEEGWHCTSEACESCVLHRSCSPGFGVKQIATGVSDTICEPCPVGFFSNVSSAFEKCHPWTSCETKDLVVQQAGTNKTDVVCGPQDRLR
notes: Bought reagent; Captured on the Biacore chip through rabbit anti-mouse immunoglobulin antibodies; not shown: constant region of the mouse IgG2a heavy chain
